The full list was thinned out, with hits kept by preference.
HCMV NEC inh = cytomegalovirus nuclear egress complex inhibition; HTRF UL50-UL53 interaction, normalized percent inhibition; inhibition, % (no concentration beside the values); 0.15% of 190,000 active; AID 1918969; in the data active = inhibition above about 27%, passing the limit was not always enough
GIV-Gai inh = inhibitors of GIV GBA-motif binding to rat Galpha-i3. 210,000 tested, 0.42% active. percent of control (FP), % (concentration not given with the values). AID 1224905. Galpha-i3/FITC-GIV peptide fluorescence polarization, 90 min; active compounds read low; scaled: aluminum fluoride 0%, vehicle 100%;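 active = replicate mean at 85% of control or lower, very high polarization wells dropped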;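 note: wells of about 15 µL received 100 nL stock; the first replicate is given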
GIV Gai FP conf = confirmation of inhibitors of GIV binding to rat Galpha-i3; FITC-GIV peptide binding to Galphai3, fluorescence polarization; hits give low values; fluorescence polarization, mP at 100 µM; 38% of 580 active; shares compounds with GIV-Gai inh;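 active = inhibition score of 15 or more, meaning 100 minus mean polarization as percent of control over three replicates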;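 note: lower mP means peptide displaced from Galphai3 so more inhibition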
GIV-Gai AS conf = confirmation of inhibitors of GIV binding to human Galpha-i3 | shares compounds with GIV-Gai inh | AlphaScreen Galphai3-GIV binding, purified proteins, 90 min; hits give low values | AlphaScreen counts at 100 µM | 39% of 580 active | AID 1259351;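 active = inhibition score at or above a set limit, where the score is 100 minus the three-replicate mean percent of control signal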
Of the large screens only hits and unclear results are named; the others gave an inactive call (follow-up assays come after a bar, where they were run); ! = repeats disagree.

Cn1nnnc1SCC(=O)NC1Cc2ccccc2C1	none | GIV Gai FP conf inactive | GIV-Gai AS conf inactive
CC(NC(=O)CSc1nnnn1C)c1ccccc1 (configuration not stated)	none (no result: GIV-Gai inh)
CCOc1ccc(NC(=O)c2nn(-c3ccc(OC)cc3)c(=O)n(C)c2=O)cc1	none
COc1ccc(/C=C2\C=C(c3ccccc3)N(c3ccc(Br)cc3C)C2=O)cc1Br	none (no result: HCMV NEC inh)
COc1ccc(/C=C2\C=C(c3ccccc3)N(c3ccc(Br)cc3C)C2=O)cc1	GIV-Gai inh 34.3 (no result: HCMV NEC inh) | GIV Gai FP conf inactive | GIV-Gai AS conf inactive
CCCCNC(=O)C12CCC(C)(C(=O)C1)C2(C)C (configuration not stated)	none
CCCCSc1nnc2c(n1)OC(c1cccs1)Nc1ccccc1-2 (configuration not stated)	none
CCCCSc1nnc2c(n1)OC(c1ccc(Br)s1)Nc1ccccc1-2 (configuration not stated)	GIV-Gai inh 40.3 | GIV Gai FP conf inactive | GIV-Gai AS conf inactive
O=C1C(=O)N(C2CCN(C(=O)c3cccc(Cl)c3)CC2)CCN1Cc1cccc(F)c1	none
Oc1sc(-c2ccccc2)cc1C=Nc1ccccc1	GIV-Gai inh 84.0 (no result: HCMV NEC inh) | GIV Gai FP conf inactive | GIV-Gai AS conf inactive
Oc1ccccc1C=Nc1cccc(N=Cc2ccccc2O)c1	none (no result: HCMV NEC inh)
O=C(CCC1COc2ccccc2O1)N1CCN(Cc2ccccc2)CC1 (configuration not stated)	none
CC1(C)C=C(O)C(C2(O)C(=O)c3ccccc3C2=O)C(=O)C1 (configuration not stated)	none (no result: GIV-Gai inh)
CC1(C)CC(=O)C(C2(O)C(=O)c3ccccc3C2=O)C(=O)C1	HCMV NEC inh 81.5, GIV-Gai inh 65.5 | GIV Gai FP conf 58.2 | GIV-Gai AS conf inactive
O=C(CN1N=C(c2ccccc2F)c2cc(Cl)ccc2S1(=O)=O)NCCc1ccccc1	none
COc1ccc(Cl)cc1NC(=O)N1CCN(c2nc3ccccc3n3cccc23)CC1	GIV-Gai inh 83.3 (no result: HCMV NEC inh) | GIV Gai FP conf inactive | GIV-Gai AS conf inactive
COc1ccc(OC)c(NC(=O)N2CCN(c3nc4ccccc4n4cccc34)CC2)c1	none (no result: HCMV NEC inh)
COc1ccc(N2C(=O)NC(=O)/C(=C\c3ccc(OCC(=O)O)c(Br)c3)C2=O)cc1	none
COc1ccc(N2C(=O)/C(=C/c3ccc(OCC(=O)O)c(Br)c3)C(=O)NC2=S)cc1	GIV-Gai inh 78.5 | GIV Gai FP conf 44.6 | GIV-Gai AS conf 20466
Cc1ccc(NC(=O)C2CC(=O)N=C(N)S2)cc1C (configuration not stated)	none (no result: GIV-Gai inh)
Oc1ccc(F)cc1-c1ccnc2cc(-c3ccc(Cl)cc3)nn12	none
N=c1c(C(N)=O)cc2c(=O)n3ccccc3nc2n1C1CCCC1	none | GIV Gai FP conf inactive | GIV-Gai AS conf inactive
CCOC(=O)c1cc2c(=O)n3ccccc3nc2n(C2CCCCC2)c1=N	none
CCOc1ccc2nc(SCc3nc(N)nc(N4CCOCC4)n3)sc2c1	none (no result: HCMV NEC inh)
O=C(CSc1nnc2c3sc(N4CCCC4)nc3ncn12)Nc1ccc(F)c(F)c1	none (no result: HCMV NEC inh)
O=C(CSc1nnc2c3sc(N4CCCC4)nc3ncn12)Nc1ccc2c(c1)OCO2	GIV-Gai inh 30.5 (no result: HCMV NEC inh) | GIV Gai FP conf inactive | GIV-Gai AS conf inactive
COc1cccc(CNC(=O)C2CCCN(c3nnc(-n4c(C)ccc4C)s3)C2)c1 (configuration not stated)	none
COc1cccc(CNC(=O)C2CCCN2c2nnc(N3CCCCC3=O)s2)c1 (configuration not stated)	none | GIV Gai FP conf inactive | GIV-Gai AS conf inactive
CN1CCN(/N=c2\cc(-c3ccccc3)oc3ccccc23)CC1	none (no result: GIV-Gai inh)
CCNC(=O)C1CCN(S(=O)(=O)c2ccc(C)cc2)CC1	none
CNC(=O)c1cn(-c2ccccc2)c(=O)c2ccccc12	none
CC(=O)n1c(=O)c2ccccc2c(=O)n1-c1ccccc1	GIV-Gai inh 78.6! | GIV Gai FP conf 52 | GIV-Gai AS conf 2364
Cc1cc(=O)n2c(n1)sc1ccccc12	none
Cc1ccc(S(=O)(=O)N2CCC(C#N)=C(O)c3ccccc32)cc1	none (no result: GIV-Gai inh)
Cn1c(=O)c(C(=O)Nn2c(Cc3ccccc3)nc3ccccc3c2=O)c(O)c2ccccc21	none (no result: HCMV NEC inh)
Cc1ccc(CNc2ccc(O)cc2)s1	GIV-Gai inh 75.1 | GIV Gai FP conf 50.2 | GIV-Gai AS conf 9116
Oc1ccc(NCc2cccs2)cc1	none
O=C(/C=C/Sc1nc2ccccc2o1)c1ccccc1	none
O=C(/C=C/Sc1ccccn1)c1ccccc1	none | GIV Gai FP conf inactive | GIV-Gai AS conf inactive
CC1CCCCC1NS(=O)(=O)c1cc(C(=O)Nc2cccc(Cl)c2)ccc1F (configuration not stated)	none (no result: HCMV NEC inh)
O=C1OC(c2ccccc2)/C(=C(\O)c2ccccc2)C1=O (configuration not stated)	none (no result: GIV-Gai inh)
CCN1CCCc2cc(O)ccc21	GIV-Gai inh -9.7 | GIV Gai FP conf 8.3 | GIV-Gai AS conf 5580
CC(C)N1CCCc2cc(CN)ccc21	none (no result: GIV-Gai inh)
CCCN1CCCc2cc(CN)ccc21	GIV-Gai inh 64.7 | GIV Gai FP conf 51.3 | GIV-Gai AS conf 9116
CNC(=O)NC(=O)CN1CCCc2cc(C)ccc21	none (no result: GIV-Gai inh)
CC(C)Sc1nc2c(c(=O)n1C1CCOC(C)(C)C1)C1(CCCCC1)Cc1ccccc1-2 (configuration not stated)	none (no result: HCMV NEC inh)
Cc1ccc(NC(=O)N2CCN(c3cc(=O)n4nc(-c5ccccc5C)sc4n3)CC2)cc1F	GIV-Gai inh 83.8 | GIV Gai FP conf inactive | GIV-Gai AS conf inactive
Cc1ccccc1-c1nn2c(=O)cc(N3CCN(C(=O)Nc4ccc(Cl)cc4)CC3)nc2s1	none
CC(C)c1ccc(S(=O)(=O)/N=C2/C=C(Sc3ncn[nH]3)C(=O)c3ccccc32)cc1	GIV-Gai inh 13.4 (no result: HCMV NEC inh) | GIV Gai FP conf 26.1 | GIV-Gai AS conf 3681
Cc1ccc(S(=O)(=O)/N=C2/C=C(Sc3ncn[nH]3)C(=O)c3ccccc32)cc1	GIV-Gai inh 5.9 | GIV Gai FP conf 15.5 | GIV-Gai AS conf 6564
Cc1ccc(S(=O)(=O)Nc2ccc(O)c(Sc3ncn[nH]3)c2)cc1	none
Cc1ccc(S(=O)(=O)/N=C2\C=C(Sc3ncn[nH]3)C(=O)c3ccccc32)cc1	GIV-Gai inh 83.1 | GIV Gai FP conf 54.3 | GIV-Gai AS conf 4566
Cc1ccc(Nc2nc(Nc3ccc(C)cc3)nc(Sc3ncn[nH]3)n2)cc1	none (no result: GIV-Gai inh)
O=C1C(Sc2ccccc2)=C/C(=N/S(=O)(=O)c2cccs2)c2ccccc21	none (no result: HCMV NEC inh)
CC1CCCCN1S(=O)(=O)c1cnc[nH]1 (configuration not stated)	none
Cc1cccc(-c2ocnc2C(=O)Nc2ccccc2CN(C)C2CCCCC2)c1	none
Cc1ccc(C)n1-c1ccc(C(=O)O)cc1O	HCMV NEC inh 55.8, GIV-Gai inh 30.7 | GIV Gai FP conf 50.5 | GIV-Gai AS conf 3903
Cc1ccc(C)n1-c1ccsc1C(=O)CC#N	none
Cc1cc(C)n(-c2cc(C(=O)O)ccc2C)n1	none
Cc1ccc(C(=O)O)cc1-n1c(C)ccc1C	GIV-Gai inh 66.8 | GIV Gai FP conf 53.9 | GIV-Gai AS conf 3689
Cc1ccc(C)n1-c1ccsc1C(=O)O	GIV-Gai inh 65.2 | GIV Gai FP conf 11.1 | GIV-Gai AS conf 1766
Cc1cc(=O)cc(C)n1-c1ccccc1O	none (no result: GIV-Gai inh)
CC(C)(CC(=O)O)CC(=O)N1CCN(Cc2c(F)cccc2Cl)CC1	none
Cc1ccc2c(c1)C(c1ccc(F)cc1)N(C(=O)COc1ccccc1)CC(=O)N2 (configuration not stated)	none (no result: HCMV NEC inh)
